The values that follow are results of earlier work, collected in US20050148552A1, “Methods of treating eczema” (priority 2003, published 2005).

For this series the following is noted: in vivo.

With tetracycline pyrazole [CMT-5], the biodistribution entry is “limited biodistribution”.
